# Apparent affinities of Ab-14 variants for a coronavirus HR2 peptide

Values reported by Engelhart et al. 2022, doi:10.1038/s41597-022-01779-4 (FLAb copy).

Target: peptide PDVDLGDISGINAS, taken from heptad repeat 2 (HR2) of SARS-CoV-2 spike.

Ab-14 is the parent antibody, in scFv form: VH, then a (GGGGS)3 linker, then VL. The heavy chain is unchanged in all variants.
VH: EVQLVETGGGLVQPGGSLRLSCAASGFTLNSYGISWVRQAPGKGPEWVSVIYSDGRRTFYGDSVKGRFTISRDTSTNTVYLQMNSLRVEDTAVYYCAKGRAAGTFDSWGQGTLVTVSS
VL: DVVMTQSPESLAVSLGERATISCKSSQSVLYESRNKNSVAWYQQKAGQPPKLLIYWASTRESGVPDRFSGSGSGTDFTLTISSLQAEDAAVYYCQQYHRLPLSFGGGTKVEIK

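The library (AAYL50) carries one to three amino acid substitutions per variant, with no insertions or deletions. AlphaSeq pools MATa yeast showing the antibodies with MATalpha yeast showing the peptide. Mating (16 h, 30 °C) was followed by selection of diploids and sequencing of their barcodes. A regression on co-assayed BCL2-family reference pairs converts the normalised counts of each replicate to an apparent Kd. The assay was run in three technical replicates.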

Each variant is given by its three light chain CDRs, as the data file delimits them; those of the parent are KSSQSVLYESRNKNSVA, WASTRES, QQYHRLPLS.
The read-out is the apparent dissociation constant on a log10 scale (nM): the lower, the stronger.
"ND" means that the variant was in the library but no mating with the target was seen in that replicate; the authors take this as a sign of poor binding, and no number exists.
Parent in this assay: reference entry 0.65, copy in this library 1.68.
Background: pairings of library AAYL50 with three empty control strains gave a value in 18% of cases (median 4.19, 5th percentile 2.99). Values in that range, when seen in few replicates, are hard to tell from nonspecific mating. The control count says in how many pairings with the empty strains this scFv gave a signal, with their mean in brackets.

| # | CDR-L1 | CDR-L2 | CDR-L3 | log10 Kd, replicates | signal with controls |
|---|---|---|---|---|---|
| 1 | KSSQMVLYESRNKNSVA | WAGDRES | QQYHRLPLS | 2.87 2.66 2.99 | 4 of 9 (4.35) |
| 2 | KSSQSVNYESRNKMSVA | WASTRES | QVYHRLPLS | ND 4.26 ND | 0 of 9 |
| 3 | ESSQSVLYESRNKNSVA | WASTRES | QQYHCLPLW | ND 2.57 2.86 | 0 of 9 |
| 4 | KSSQSVLYESRNKNSVA | WASTRES | RQNHRLPLS | 0.88 1.15 1.02 | 5 of 9 (4.51) |
| 5 | KSVQSMLYESRNKNSVA | WASTRES | QQYHRLNLS | ND ND ND | 0 of 9 |
| 6 | KSSQSVLYESRNKNGCA | FASTRES | QQYHRLPLS | 3.64 ND ND | 2 of 9 (4.35) |
| 7 | KSSQSVLYESRNKNTVA | WASTRES | WQYHRLPLS | ND ND ND | 3 of 9 (5.24) |
| 8 | KSSQSVLYESRNKNSVA | WASTRES | QQYHRLSYS | 3.65 ND 4.22 | 2 of 9 (4.15) |
| 9 | KSSQSVLYESRNKNPKA | WASTRES | QQYHRLPIS | ND ND ND | 1 of 9 (3.90) |
| 10 | KSSIRVLYESRNKNSVA | WASTRES | QQYHLLPLS | 2.72 2.88 2.62 | 0 of 9 |
| 11 | KSSQSVLYESRNKNSVA | WASWRES | QQYQRLPLL | 3.27 ND 4.54 | 0 of 9 |
| 12 | FSSQSVLYESTNKNSVA | WASRRES | QQYHRLPLS | ND ND 3.90 | 3 of 9 (3.93) |
| 13 | KSSQSVLYESRNKNSIA | WASTRES | QEYHRLPLY | 1.33 1.22 1.29 | 0 of 9 |
| 14 | KSSQSFLYESRNKNSVA | WASTRES | QQYHRLPDF | 2.80 2.38 2.55 | 2 of 9 (3.84) |
| 15 | KSSQSVLYESVNKNSVA | WASTRES | QEYHRLPLS | 0.63 0.91 0.77 | 5 of 9 (4.85) |
| 16 | KSSQSVLYECRNKNSVA | WASTRES | QQYARLPWS | ND ND 5.54 | 5 of 9 (4.59) |
| 17 | KSSQSVLYESRNKNSVA | WASTRES | QQDGRLPKS | 0.52 1.07 1.29 | 0 of 9 |
| 18 | KSSQGVLYESRNKNSVA | WASTRSS | QQEHRLPLS | ND ND ND | 1 of 9 (2.34) |
| 19 | NSSQSVLYQSRNKNSVA | WASFRES | QQYHRLPLS | 2.16 2.26 2.77 | 3 of 9 (3.71) |
| 20 | KSSQSVMYESRNKYSVA | WASTRES | QQYHRLPLW | 1.51 2.00 2.79 | 4 of 9 (3.82) |
| 21 | KSSQSVLVYSRNKNSVA | KASTRES | QQYHRLPLS | ND ND ND | 0 of 9 |
| 22 | KWSQSMLYESRNKNSVA | SASTRES | QQYHRLPLS | 0.16 0.44 0.19 | 2 of 9 (4.94) |
| 23 | KSSQSVEYESRYGNSVA | WASTRES | QQYHRLPLS | 1.10 1.14 1.46 | 1 of 9 (4.91) |
| 24 | KSMQYVLYESRNKNSVA | WASTRES | QQYHTLPLS | 1.38 1.28 1.40 | 2 of 9 (3.29) |
| 25 | KSSQSHLYESRHKNMVA | WASTRES | QQYHRLPLS | ND ND ND | 2 of 9 (4.12) |
| 26 | KSSQSVLYESRNKNSNA | WASGRES | QQYHRLPLS | ND 4.38 ND | 1 of 9 (3.43) |
| 27 | KSSQSVLYESRNKNSVA | WASTREG | QQYHRLPLG | 1.46 1.71 1.83 | 2 of 9 (4.38) |
| 28 | KSSQSVLYESRNKNSFA | WASTRES | QQYHRYRLS | ND 3.91 ND | 6 of 9 (3.96) |
| 29 | KSSQSVMYEYRNKVSVA | WASTRES | QQYHRLPLS | 2.49 3.49 3.06 | 1 of 9 (3.75) |
| 30 | KSGQSVLYESRNKNSVA | WASTRES | QQYHCLSLS | ND ND ND | 0 of 9 |
| 31 | KSSQSVLYNSRNKNSVA | RASTRES | QQYHALPLS | 1.96 1.82 2.06 | 5 of 9 (4.61) |
| 32 | KSSQSVNYESRNKNSVA | WASARES | QQYHYLPLS | ND ND ND | 0 of 9 |

A selection of 3 entries from above:

| CDR-L1 | CDR-L2 | CDR-L3 | log10 Kd, replicates | signal with controls |
|---|---|---|---|---|
| KSSQSVLYESRNKNSIA | WASTRES | QEYHRLPLY | 1.33 1.22 1.29 | 0 of 9 |
| KSSQSVLYNSRNKNSVA | RASTRES | QQYHALPLS | 1.96 1.82 2.06 | 5 of 9 (4.61) |
| KSSIRVLYESRNKNSVA | WASTRES | QQYHLLPLS | 2.72 2.88 2.62 | 0 of 9 |